Measurements reported in US9278960B2, “Quinoline carboxamide and quinoline carbonitrile derivatives as mGluR2-negative allosteric modulators, compositions, and their use” (Merck Sharp & Dohme Corp., priority 2011, dated 2016).
pIC50: −log10 of the molar value.

Sequences of proteins named here, by UniProt entry; tags and fusion partners are left off. Residues count along the entry.
UniProt Q14416, 19-872: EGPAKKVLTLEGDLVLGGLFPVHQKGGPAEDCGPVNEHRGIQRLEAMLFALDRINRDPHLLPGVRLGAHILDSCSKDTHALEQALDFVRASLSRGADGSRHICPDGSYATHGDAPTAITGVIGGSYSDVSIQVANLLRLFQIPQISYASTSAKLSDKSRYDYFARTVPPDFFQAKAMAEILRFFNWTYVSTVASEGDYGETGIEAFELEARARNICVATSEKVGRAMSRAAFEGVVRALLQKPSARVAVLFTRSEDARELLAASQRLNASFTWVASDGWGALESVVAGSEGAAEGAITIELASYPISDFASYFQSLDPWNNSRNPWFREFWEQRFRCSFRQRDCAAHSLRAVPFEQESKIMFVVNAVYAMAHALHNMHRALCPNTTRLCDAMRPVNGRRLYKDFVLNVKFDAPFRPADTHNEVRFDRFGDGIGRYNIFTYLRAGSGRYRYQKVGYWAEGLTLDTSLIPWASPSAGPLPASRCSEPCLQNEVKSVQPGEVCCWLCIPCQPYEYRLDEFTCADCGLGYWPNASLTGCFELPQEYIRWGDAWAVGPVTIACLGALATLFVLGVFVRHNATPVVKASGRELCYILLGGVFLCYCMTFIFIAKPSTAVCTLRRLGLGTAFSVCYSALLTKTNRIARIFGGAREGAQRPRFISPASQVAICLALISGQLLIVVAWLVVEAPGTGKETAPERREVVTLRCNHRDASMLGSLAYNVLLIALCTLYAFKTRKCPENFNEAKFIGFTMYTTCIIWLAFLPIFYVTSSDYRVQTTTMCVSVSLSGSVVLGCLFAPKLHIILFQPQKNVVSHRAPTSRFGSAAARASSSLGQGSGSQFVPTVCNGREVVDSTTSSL

Target: human mGluR2 (Homo sapiens (Human), UniProt Q14416)
Test: FLIPR Ca2+ mobilization antagonist assay in CHO dhfr- cells expressing recombinant human mGluR2 and Gα16
Assay type: cell-based
Details: antagonist response after addition of 2,500 nM glutamate, Fluo-4 AM, FLIPR384

Structure (SMILES) | pIC50
NC(=O)c1cc(-c2ccc(F)cc2)c2ccc(CN3CCNC(C(F)F)C3)cc2n1 (stereo not drawn) [Example 4-106, 7-{[3-(difluoromethyl)piperazin-1-yl]methyl}-4-(4-fluorophenyl)quino-line-2-carboxamide] | 7.30
NC(=O)c1cc(-c2ccc(F)cc2)c2ccc(CN3CCNC(C(F)F)C3)cc2n1 (stereo not drawn) [Example 4-107, 7-{[3-(difluoromethyl)piperazin-1-yl]methyl}-4-(4-fluorophenyl)quino-line-2-carboxamide] | 7.60
CC(C)(C)C1CN(Cc2ccc3c(-c4ccc(F)cc4)cc(C(N)=O)nc3c2)CCN1 (stereo not drawn) [Example 4-108, 7-[(3-tert-butylpiperazin-1-yl)methyl]-4-(4-fluorophenyl)quino-line-2-carboxamide] | 6.79
CC(C)C1CN(Cc2ccc3c(-c4ccc(F)cc4)cc(C(N)=O)nc3c2)CCN1 (stereo not drawn) [Example 4-109, 4-(4-fluorophenyl)-7-{[3-(1-methylethyl)piper-azin-1-yl]methyl}quinoline-2-carboxamide] | 6.94
NC(=O)c1cc(-c2ccc(F)cc2)c2ccc(CN3CCNC(C4CC4)C3)cc2n1 (stereo not drawn) [Example 4-110, 7-[(3-cyclopropylpiperazin-1-yl)methyl]-4-(4-fluorophenyl)quino-line-2-carboxamide] | 7.05
NC(=O)c1cc(-c2ccc(F)cc2)c2ccc(CN3CCNC(CF)C3)cc2n1 (stereo not drawn) [Example 4-111, 7-{[3-(fluoromethyl)piper-azin-1-yl]methyl}-4-(4-fluorophenyl)quino-line-2-carboxamide] | 7.10
CC1CN(Cc2ccc3c(-c4ccc(F)cc4)cc(C(N)=O)nc3c2)CC(C(F)(F)F)N1 (stereo not drawn) [Example 4-112, 4-(4-fluorophenyl)-7-{[3-methyl-5-(trifluoromethyl)piperazin-1-yl]methyl}quinoline-2-carboxamide] | 7.64
CC1CN(Cc2ccc3c(-c4ccc(F)cc4)cc(C(N)=O)nc3c2)CC(C(F)(F)F)N1 (stereo not drawn) [Example 4-113, 4-(4-fluorophenyl)-7-{[3-methyl-5-(trifluoromethyl)piperazin-1-yl]methyl}quinoline-2-carboxamide] | 7.62
CC1CN(Cc2ccc3c(-c4ccc(F)cc4)cc(C(N)=O)nc3c2)CC(C(F)(F)F)N1 (stereo not drawn) [Example 4-114, 4-(4-fluorophenyl)-7-{[3-methyl-5-(trifluoromethyl)piperazin-1-yl]methyl}quinoline-2-carboxamide] | 7.82
CC1CN(Cc2ccc3c(-c4ccc(F)cc4)cc(C(N)=O)nc3c2)CC(C(F)(F)F)N1 (stereo not drawn) [Example 4-115, 4-(4-fluorophenyl)-7-{[3-methyl-5-(trifluoromethyl)piperazin-1-yl]methyl}quinoline-2-carboxamide] | 7.47
C[C@@H]1CN(Cc2ccc3c(-c4cnc(CF)s4)cc(C(N)=O)nc3c2)C[C@H](C(F)(F)F)O1 [Example 4-116, 4-[2-(fluoromethyl)-1,3-thiazol-5-yl]-7-{[(2R,6R)-2-methyl-6-(trifluoromethyl)morpholin-4-yl]methyl}quinoline-2-carboxamide] | 7.85
C[C@@H]1CN(Cc2ccc3c(-c4cnc(C(F)F)s4)cc(C(N)=O)nc3c2)C[C@H](C(F)(F)F)O1 [Example 4-117, 4-[2-(difluoromethyl)-1,3-thiazol-5-yl]-7-{[(2R,6R)-2-methyl-6-(trifluoromethyl)morpholin-4-yl]methyl}quinoline-2-carboxamide] | 7.28
C[C@@H]1CN(Cc2ccc3c(-c4cnn(C(F)F)c4)cc(C(N)=O)nc3c2)C[C@H](C(F)(F)F)O1 [Example 4-118, 4-[1-(difluoromethyl)-1H-pyrazol-4-yl]-7-{[(2R,6R)-2-methyl-6-(trifluoromethyl)morpholin-4-yl]methyl}quinoline-2-carboxamide] | 7.89
Cn1cc(-c2cc(C(N)=O)nc3cc(CN4CCSC(C(F)(F)F)C4)ccc23)cn1 (stereo not drawn) [Example 4-119, 4-(1-methyl-1H-pyrazol-4-yl)-7-{[2-(trifluoromethyl)thio-morpholin-4-yl]methyl}quinoline-2-carboxamide] | 7.74
Cn1cc(-c2cc(C(N)=O)nc3cc(CN4CCCC5(CC5)C4)ccc23)cn1 [Example 4-120, 7-(5-azaspiro[2.5]oct-5-ylmethyl)-4-(1-methyl-1H-pyrazol-4-yl)quinoline-2-carboxamide] | 6.62
Cn1cc(-c2cc(C(N)=O)nc3cc(CN4CCC[C@@H](O)C4)ccc23)cn1 [Example 4-121, 7-{[(3R)-3-hydroxypiperidin-1-yl]methyl}-4-(1-methyl-1H-pyrazol-4-yl)quinoline-2-carboxamide] | < 6.00
Cn1cc(-c2cc(C(N)=O)nc3cc(CN4CCC[C@H](O)C4)ccc23)cn1 [Example 4-122, 7-{[(3S)-3-hydroxypiperidin-1-yl]methyl}-4-(1-methyl-1H-pyrazol-4-yl)quinoline-2-carboxamide] | 6.03
NC(=O)c1cc(-c2ccc(F)cc2)c2ccc(CN3CCCC(C(F)(F)F)C3)cc2n1 (stereo not drawn) [Example 4-123, 4-(4-fluorophenyl)-7-{[3-(trifluoromethyl)piperidin-1-yl]methyl}quinoline-2-carboxamide] | 7.31

Structure (SMILES) | pIC50
NC(=O)c1cc(-c2ccc(F)cc2)c2ccc(CN3CCCC(C(F)(F)F)C3)cc2n1 (stereo not drawn) [Example 4-124, 4-(4-fluorophenyl)-7-{[3-(trifluoromethyl)piperidin-1-yl]methyl}quinoline-2-carboxamide] | 7.32
Cc1cnc(-c2cc(C(N)=O)nc3cc(CN4C[C@@H](C)O[C@@H](C(F)(F)F)C4)ccc23)s1 [Example 4-125, 4-(5-methyl-1,3-thiazol-2-yl)-7-{[(2R,6R)-2-methyl-6-(trifluoromethyl)morpholin-4-yl]methyl}quinoline-2-carboxamide] | 7.12
Cc1cc(-c2cc(C(N)=O)nc3cc(CN4C[C@@H](C)O[C@@H](C(F)(F)F)C4)ccc23)sn1 [Example 4-126, 4-(3-methylisothiazol-5-yl)-7-{[(2R,6R)-2-methyl-6-(trifluoromethyl)morpholin-4-yl]methyl}quinoline-2-carboxamide] | 7.89
Cn1cc(-c2cc(C(N)=O)nc3cc(CN4CCS(=O)(=O)C(C5CC5)C4)ccc23)cn1 (stereo not drawn) [Example 4-127, 7-[(2-cyclopropyl-1,1-dioxidothiomorpholin-4-yl)methyl]-4-(1-methyl-1H-pyrazol-4-yl)quinoline-2-carboxamide] | 7.01
C[C@@H]1CN(Cc2ccc3c(-c4cnc(N)s4)cc(C(N)=O)nc3c2)C[C@H](C(F)(F)F)O1 [Example 4-128, 4-(2-amino-1,3-thiazol-5-yl)-7-{[(2R,6R)-2-methyl-6-(trifluoromethyl)morpholin-4-yl]methyl}quinoline-2-carboxamide] | 6.85
Cc1nsc(-c2cc(C(N)=O)nc3cc(CN4C[C@@H](C)O[C@@H](C(F)(F)F)C4)ccc23)n1 [Example 4-129, 4-(3-methyl-1,2,4-thiadiazol-5-yl)-7-{[(2R,6R)-2-methyl-6-(trifluoromethyl)morpholin-4-yl]methyl}quinoline-2-carboxamide] | < 6.00
Cn1cc(-c2cc(C(N)=O)nc3cc(CN4CCC5(CC4)CC5)ccc23)cn1 [Example 4-130, 7-(6-azaspiro[2.5]oct-6-ylmethyl)-4-(1-methyl-1H-pyrazol-4-yl)quinoline-2-carboxamide] | 6.61
Cn1cc(-c2cc(C(N)=O)nc3cc(CN4CCCCC4CF)ccc23)cn1 (stereo not drawn) [Example 4-131, 7-{[2-(fluoromethyl)piper-idin-1-yl]methyl}-4-(1-methyl-1H-pyrazol-4-yl)quinoline-2-carboxamide] | 6.95
Cn1cc(-c2cc(C(N)=O)nc3cc(CN4CCCCC45CC5)ccc23)cn1 [Example 4-132, 7-(4-azaspiro[2.5]oct-4-ylmethyl)-4-(1-methyl-1H-pyrazol-4-yl)quinoline-2-carboxamide] | 6.83
Cc1c(-c2cc(C(N)=O)nc3cc(CN4C[C@@H](C)O[C@@H](C(F)(F)F)C4)ccc23)cnn1C [Example 4-133, 4-(1,5-dimethyl-1H-pyrazol-4-yl)-7-{[(2R,6R)-2-methyl-6-(trifluoromethyl)morpholin-4-yl]methyl}quinoline-2-carboxamide] | 6.57
Cc1nn(C)c(C)c1-c1cc(C(N)=O)nc2cc(CN3C[C@@H](C)O[C@@H](C(F)(F)F)C3)ccc12 [Example 4-134, 7-{[(2R,6R)-2-methyl-6-(trifluoromethyl)morpholin-4-yl]methyl}-4-(1,3,5-trimethyl-1H-pyrazol-4-yl)quinoline-2-carboxamide] | 7.07
Cc1nn(C)cc1-c1cc(C(N)=O)nc2cc(CN3C[C@@H](C)O[C@@H](C(F)(F)F)C3)ccc12 [Example 4-135, 4-(1,3-dimethyl-1H-pyrazol-4-yl)-7-{[(2R,6R)-2-methyl-6-(trifluoromethyl)morpholin-4-yl]methyl}quinoline-2-carboxamide] | 8.10
NC(=O)c1cc(-c2ccc(F)cc2)c2ccc(C(=O)N3CCCC3)cc2n1 [Example 5-4, 4-(4-Fluorophenyl)-7-(pyrrolidin-1-ylcarbonyl)quinoline-2-carboxamide] | 6.52
NC(=O)c1cc(-c2ccc(F)cc2)c2ccc(C(=O)N3CCCCC3)cc2n1 [Example 5-5, 4-(4-fluorophenyl)-7-(piperidin-1-ylcarbonyl)quinoline-2-carboxamide] | 6.90
NC(=O)c1cc(-c2ccc(F)cc2)c2ccc(C(=O)N3CCOCC3)cc2n1 [Example 5-6, 4-(4-fluorophenyl)-7-(morpholin-4-ylcarbonyl)quinoline-2-carboxamide] | 6.01
Cn1cc(-c2cc(C(N)=O)nc3cc(Cc4cnc(C5CC5)nc4)ccc23)cn1 [Example 6-2, 7-((2-Cyclopropylpyrimidin-5-yl)methyl)-4-(1-methyl-1H-pyrazol-4-yl)quinoline-2-carboxamide] | 7.68
Cn1cc(-c2cc(C#N)nc3cc(Cc4ccnc(C(F)(F)F)c4)ccc23)cn1 [Example 6-4, 4-(1-methyl-1H-pyrazol-4-yl)-7-{[2-(trifluoromethyl)pyridin-4-yl]methyl} quinoline-2-carbonitrile] | 6.84
N#Cc1ccc(Cc2ccc3c(-c4ccc(F)cc4)cc(C(N)=O)nc3c2)cn1 [Example 6-6, 7-[(6-cyanopyridin-3-yl)methyl]-4-(4-fluorophenyl) quinoline-2-carboxamide] | 7.89
